Antibody variant affinities, Ab-95 light chain, assay 2

Binding partner: SARS-CoV-2 spike HR2 peptide, sequence PDVDLGDISGINAS.

Parent: Ab-95, a human scFv built as VH, three GGGGS repeats, VL. Only the CDRs of the light chain vary.
VH: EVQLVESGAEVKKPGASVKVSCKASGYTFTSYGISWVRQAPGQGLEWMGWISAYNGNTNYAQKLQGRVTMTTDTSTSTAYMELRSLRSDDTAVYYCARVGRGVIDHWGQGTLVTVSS
VL: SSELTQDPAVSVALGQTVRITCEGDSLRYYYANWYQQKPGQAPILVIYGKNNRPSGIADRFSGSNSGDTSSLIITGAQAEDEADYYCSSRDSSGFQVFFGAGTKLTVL

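Phage display of a naive human antibody library on the peptide gave the parent. Variants in AAYL52 differ from the parent at up to three CDR positions; double and triple changes were sampled at random. AlphaSeq pools MATa yeast showing the antibodies with MATalpha yeast showing the peptide. The frequency of each diploid, read from paired DNA barcodes, reflects how well the two displayed proteins bind. A regression on co-assayed BCL2-family reference pairs converts the normalised counts of each replicate to an apparent Kd. Mating was done three times.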

Each variant is given by its three light chain CDRs, as the data file delimits them; those of the parent are EGDSLRYYYAN, GKNNRPS, SSRDSSGFQVF. This list gathers variants with a substitution at N52 (VL, numbered from residue 1). The read-out is the apparent dissociation constant on a log10 scale (nM): the lower, the stronger. An entry "ND" has no value in the source: the pair was not observed among the diploids in that replicate. This suggests poor binding but is not conclusive. Three control strains display no target. For library AAYL52, 28% of the pairings with them gave a signal, with a median of 3.91 and one signal in twenty below 2.90, so weak values seen in few replicates may be background.

Variant EGDSLRYYYAN | GKNARPS | SSRDSSGFQHF showed ND, 4.16, ND. With EGDHLRYYYAN | GKNKRPS | SSRDSSKFQVF the result was ND, 3.42, ND. Variant EGDSLRYYYAN | GFNQRPS | SSRDSSGFQVF gave 2.86, 2.94, 2.74. With EGDSLRYTYAN | GKNIRPS | SSRDSSGFQWF the result was 1.65, 1.43, 0.91. With EGDSLRYYYAN | GKNIRPS | LSRDSSEFQVF the result was 2.16, 2.39, 1.78. Variant EGDSLRYYYAN | GKNFRPS | SVRDSSGGQVF showed 3.67, 4.28, 3.86. With EGDSLRYYYAN | GKNLRPS | STRDSSGFYVF the result was 4.99, 2.78, 4.50. With EGDSLRYYYAN | GKNFRPS | SSRDSSGFNVF the result was 3.74, 1.91, 3.05.

With EGDSLRYYYPN | GRNCRPS | SSRDSSGFQVF the result was 2.98, 2.56, 2.68. Variant EGDSLRYYYAN | GKPRRPS | SSRDSSGFQVF gave 4.35, 4.92, 4.58. Variant EGDSLRYYYAN | GKRPRPS | SSRDSSGFQVF gave ND, 5.07, ND. With EGDSLRYRYAN | GKNYRPS | SSRDKSGFQVF the result was 1.83, 2.38, 1.41. With ECDSLRYYYAN | IKNWRPS | SSRDSSGFQVF the result was ND, 4.09, ND. With NGDSLRYYYAN | GKNKRPS | SSRDSKGFQVF the result was 3.25, 3.30, ND. With EGDSFRVYYAN | GKNMRPS | SSRDSSGFQVF the result was ND, 3.37, 3.93. Variant EGDSLRYYYSN | GKNGRPS | VSRDSSGFQVF gave 3.89, 4.05, ND.

Variant EGDSWRYYYAD | GKNGRPS | SSRDSSGFQVF showed 3.61, ND, ND. For ECDSLRYYYAN | GKNMRPS | SSRDVSGFQVF, the assay gave 2.91, 2.52, 1.89. For EGDSLRYYYAN | GKNHRHS | SSRNSSGFQVF, the assay gave ND, 5.66, ND. With EGDSNRYYYAN | GKNERPS | SSRDSSGQQVF the result was 2.58, 2.00, 1.77. With EGDSLRYYYAN | HKNARPS | SSRDYSGFQVF the result was 4.05, ND, ND. With EGDSLRYYYAN | GKNGRPW | SSRTSSGFQVF the result was 2.95, 3.32, 3.44. For EGNSLRYYYAN | GKNTRPS | SSRDSSFFQVF, the assay gave ND, ND, ND. Variant EGDPLRYYYAN | GKNGSPS | SSRDSSGFQVF gave 3.42, ND, 4.40.

For EGDSLRYYYAN | GKNGRPS | SSRDSDGGQVF, the assay gave 2.90, 2.89, 2.80. Variant EGDDLRYYYAN | GKNCRPS | SSRDSSGFQSF gave 5.05, 5.19, 4.19. Variant EGDSLRYYYAN | GKNCAPS | SSRDSSGFQVF showed ND, ND, ND. Variant EGDSLRYYYAN | MKNMRPS | SSRDSSGFRVF gave ND, ND, ND. Variant EGDSLRYYYAN | GKQGRPS | SSRDSSGFQEF gave 2.93, 2.93, 2.46. With EGDSLRYYYAN | GKNDRPS | SSRDSSGCQVF the result was 2.55, 2.33, 2.27. With EGDSLREYYAN | PKNDRPS | SSRDSSGFQVF the result was ND, 4.38, 4.10. Variant EGDPLRYYYAN | GKNIRPS | RSRDSSGFQVF gave ND, ND, ND.

For ENDSLWYYYAN | GKNVRPS | SSRDSSGFQVF, the assay gave 2.56, 3.10, 3.00. Variant EGFSLRYYYAN | GKNWRPS | SSRDSSGFQVF gave ND, 4.28, ND. With EGDSLRYYYAN | CFNGRPS | SSRDSSGFQVF the result was ND, 5.54, ND. For EGDSLRYYYAN | GKNFRPS | SSRDWSGFQVF, the assay gave 2.51, 2.39, 2.36. Variant EGESLRYYVAN | GKNMRPS | SSRDSSGFQVF showed 3.02, 2.38, 2.73. Variant EGDSIRYYYAN | GKNQRPS | SSRDSSDFQVF gave 3.97, ND, ND. Variant EGDSLRYYYAL | GKNDRPS | SSRDSSGFQVL gave 4.08, ND, ND. For EGDSLREYYAN | GKNVRPS | SSRDSSHFQVF, the assay gave 3.60, 5.27, ND.

For EGASLRYFYAN | GKNMRPS | SSRDSSGFQVF, the assay gave 2.47, 2.44, 2.41. Variant EGDSLRYYYAN | GKNQRPS | SSRDSSGFQVF gave 1.89, 1.72, 1.41. Variant EGDSLGYCYAN | GKNFRPS | SSRDSSGFQVF gave 2.76, 3.59, 3.62. Variant EGDSLRYYYAN | EKMGRPS | SSRDSSGFQVF showed 3.25, 3.48, 4.28. Variant EDDSLRYYYAN | GKNQRPS | SSRDSSGFQFF gave 2.84, 2.45, 2.29. Variant EGDLLRYYYAN | NKNRRPS | SSRDSSGFQVF showed ND, ND, ND.

A selection of 7 entries from above:

{"CDR-L1": "EGASLRYFYAN", "CDR-L2": "GKNMRPS", "CDR-L3": "SSRDSSGFQVF", "log10 Kd, replicates": "2.47, 2.44, 2.41"}
{"CDR-L1": "EGDSLRYYYAN", "CDR-L2": "GKQGRPS", "CDR-L3": "SSRDSSGFQEF", "log10 Kd, replicates": "2.93, 2.93, 2.46"}
{"CDR-L1": "EGDSLRYYYAN", "CDR-L2": "MKNMRPS", "CDR-L3": "SSRDSSGFRVF", "log10 Kd, replicates": "ND, ND, ND"}
{"CDR-L1": "EGDSLRYRYAN", "CDR-L2": "GKNYRPS", "CDR-L3": "SSRDKSGFQVF", "log10 Kd, replicates": "1.83, 2.38, 1.41"}
{"CDR-L1": "EGDSWRYYYAD", "CDR-L2": "GKNGRPS", "CDR-L3": "SSRDSSGFQVF", "log10 Kd, replicates": "3.61, ND, ND"}
{"CDR-L1": "EGDSLRYYYAN", "CDR-L2": "CFNGRPS", "CDR-L3": "SSRDSSGFQVF", "log10 Kd, replicates": "ND, 5.54, ND"}
{"CDR-L1": "EGDSLRYYYAN", "CDR-L2": "GKRPRPS", "CDR-L3": "SSRDSSGFQVF", "log10 Kd, replicates": "ND, 5.07, ND"}

From the AlphaSeq antibody data of Engelhart et al. 2022 (doi:10.1038/s41597-022-01779-4), copy in the FLAb collection.